Laboratory results reported in paper PMC4658230 (Toxicology, 2015).

Protein sequences, listed by entry. Tags and fused reporters are not part of them. Residues count along the entry.
UniProt P05182, 2-493 limits assumed: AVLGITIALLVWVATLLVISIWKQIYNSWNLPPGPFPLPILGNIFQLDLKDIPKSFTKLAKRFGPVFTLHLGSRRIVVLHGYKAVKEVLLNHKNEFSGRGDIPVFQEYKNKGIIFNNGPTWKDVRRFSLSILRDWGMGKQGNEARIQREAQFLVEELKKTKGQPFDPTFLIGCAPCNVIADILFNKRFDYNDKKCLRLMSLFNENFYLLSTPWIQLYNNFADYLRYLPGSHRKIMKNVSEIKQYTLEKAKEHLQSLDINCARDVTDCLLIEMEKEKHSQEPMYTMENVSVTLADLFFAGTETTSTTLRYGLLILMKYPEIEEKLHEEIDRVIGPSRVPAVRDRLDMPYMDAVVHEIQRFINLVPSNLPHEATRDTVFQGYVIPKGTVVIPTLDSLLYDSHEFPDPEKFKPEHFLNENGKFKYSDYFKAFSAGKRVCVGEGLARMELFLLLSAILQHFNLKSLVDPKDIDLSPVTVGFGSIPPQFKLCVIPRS

Legend:
erCYP2E1 [1] = molecular target: T1, erCYP2E1 (Rattus norvegicus, UniProt P05182); details: equal CYP2E1 levels in each compartment assumed
mtCYP2E1 [2] = molecular target: T2, mtCYP2E1 (Rattus norvegicus, UniProt P05182)
mtCYP2E1 [3] = molecular target: T2, mtCYP2E1; details: low concentration (10 μM); equal CYP2E1 levels in each compartment assumed
erCYP2E1 [4] = molecular target: T1, erCYP2E1; experiment: Steady-state kinetics of substrate oxidation by rat liver microsomes

percent of total metabolism through erCYP2E1 (erCYP2E1 [1]; high concentration (500 μM)): 85%
percent of total metabolism through erCYP2E1 (erCYP2E1 [1]; low concentration (10 μM)): one-third
Preferred Mechanism (mtCYP2E1 [2]): One-Site Model (Michaelis-Menten)
turnover rate of mtCYP2E1 lower than erCYP2E1 (mtCYP2E1 [2]): six-fold
percent of total metabolism through mtCYP2E1 (mtCYP2E1 [3]): two-thirds
Preferred Mechanism (erCYP2E1 [4]): Two-Site Model, ESS active only
affinity of second molecule greater than first molecule (erCYP2E1 [4]): three-fold
Kss (erCYP2E1 [4]; pH 7.4): 32 (2 to 64) μM
Structure (SMILES): C=Cc1ccccc1 [styrene]

Read-outs that look alike come from different tables or passages of the source.
